# Source: patent publication US20030022820A1, “IN VIVO ACTIVATION OF TUMOR-SPECIFIC CYTOTOXIC T CELLS” (priority 1995, published 2003)
# Assays:
# [1] = system: A2.1/K^b×CD8 or A2.1 transgenic (Tg) mice; experiment: Immunization of transgenic mice with Her-2/neu peptides, cytotoxicity against peptide-pulsed T2-A2.1/K^b; type: in vivo; conditions: A2.1/K^b×CD8 or A2.1 Tg mice
# [2] = system: JY; experiment: Cytotoxicity assay, lysis of human tumors by H3 and H7 specific CTL; type: cell-based; set-up: scale not given here; conditions: Lymphoma, A2 +
# [3] = system: MDA.MB435; experiment: as above; type: cell-based; set-up: scale not given here; conditions: Breast, A2 −
# [4] = system: MALME-3M; experiment: as above; type: cell-based; set-up: scale not given here; conditions: Melanoma, A2 +
# [5] = system: BT549; experiment: as above; type: cell-based; conditions: Breast, A2 +
# [6] = system: CASKI; experiment: as above; type: cell-based; conditions: Cervix, A2 +
# [7] = system: OVCAR-5; experiment: as above; type: cell-based; conditions: Ovarian, A2 +
# [8] = system: SV80; experiment: as above; type: cell-based; conditions: Fibroblast, A2 +
# [9] = system: ST486; experiment: as above; type: cell-based; conditions: Lymphoma, A2 +
# [10] = system: LG-2; experiment: as above; type: cell-based; conditions: EBV-trans., A2 +
# [11] = system: NCI.H1355; experiment: as above; type: cell-based; conditions: Lung, A2 +
# [12] = system: MDA.M8231; experiment: as above; type: cell-based; conditions: Breast, A2 +
# [13] = system: U87G; experiment: as above; type: cell-based; conditions: Glioblastoma, A2 +
# [14] = system: U2-OS; experiment: as above; type: cell-based; conditions: Osteosarcoma, A2 +
# [15] = system: T98G; experiment: as above; type: cell-based; conditions: Glioblastoma, A2 +
# [16] = system: SAOS.175; experiment: as above; type: cell-based; conditions: Osteosarcoma, A2 +
# [17] = system: SKMEL-5; experiment: as above; type: cell-based; conditions: Melanoma, A2 +
# [18] = system: MCF-7; experiment: as above; type: cell-based; conditions: Breast, A2 +
# [19] = system: Hep-G2; experiment: as above; type: cell-based; conditions: Hepatoma, A2 +
# [20] = system: SW480; experiment: as above; type: cell-based; conditions: Colon, A2 +
# [21] = + CYT (γ-IFN 20 ng/ml plus TNF-α 3 ng/ml, 24 hours)
structure (smiles),measurement,setting,value
CC[C@H](C)[C@H](NC(=O)[C@@H](N)CCCCN)C(=O)N[C@@H](Cc1ccccc1)C(=O)NCC(=O)N[C@@H](CO)C(=O)N[C@@H](CC(C)C)C(=O)N[C@@H](C)C(=O)N[C@@H](Cc1ccccc1)C(=O)N[C@@H](CC(C)C)C(=O)O [Peptide H3],"ability to stimulate a CTL response in Tg mice, in words",[1],able to stimulate a CTL response
same,Killing of Tumors Expressing Her-2/neu,[2]; [21],1
same,Killing of Tumors Expressing Her-2/neu,[2]; without cytokines,2
same,Killing of Tumors Expressing Her-2/neu,[3]; [21],2
same,Killing of Tumors Expressing Her-2/neu,[3]; without cytokines,3
same,Killing of Tumors Expressing Her-2/neu,[4]; [21],57
same,Killing of Tumors Expressing Her-2/neu,[4]; without cytokines,28
same,Killing of Tumors Expressing Her-2/neu,[5]; [21],40
same,Killing of Tumors Expressing Her-2/neu,[5]; without cytokines,2
same,Killing of Tumors Expressing Her-2/neu,[6]; [21],30
same,Killing of Tumors Expressing Her-2/neu,[6]; without cytokines,13
same,Killing of Tumors Expressing Her-2/neu,[7]; [21],29
same,Killing of Tumors Expressing Her-2/neu,[7]; without cytokines,25
same,Killing of Tumors Expressing Her-2/neu,[8]; [21],8
same,Killing of Tumors Expressing Her-2/neu,[8]; without cytokines,4
same,Killing of Tumors Expressing Her-2/neu,[9]; [21],1
same,Killing of Tumors Expressing Her-2/neu,[9]; without cytokines,1
same,Killing of Tumors Expressing Her-2/neu,[10]; [21],4
same,Killing of Tumors Expressing Her-2/neu,[10]; without cytokines,2
same,Killing of Tumors Expressing Her-2/neu,[11]; [21],38
same,Killing of Tumors Expressing Her-2/neu,[11]; without cytokines,11
same,Killing of Tumors Expressing Her-2/neu,[12]; [21],85
same,Killing of Tumors Expressing Her-2/neu,[12]; without cytokines,34
same,Killing of Tumors Expressing Her-2/neu,[13]; [21],1
same,Killing of Tumors Expressing Her-2/neu,[13]; without cytokines,2
same,Killing of Tumors Expressing Her-2/neu,[14]; [21],91
same,Killing of Tumors Expressing Her-2/neu,[14]; without cytokines,32
same,Killing of Tumors Expressing Her-2/neu,[15]; [21],99
same,Killing of Tumors Expressing Her-2/neu,[15]; without cytokines,20
same,Killing of Tumors Expressing Her-2/neu,[16]; [21],33
same,Killing of Tumors Expressing Her-2/neu,[16]; without cytokines,27
same,Killing of Tumors Expressing Her-2/neu,[17]; [21],38
same,Killing of Tumors Expressing Her-2/neu,[17]; without cytokines,6
same,Killing of Tumors Expressing Her-2/neu,[18]; [21],54
same,Killing of Tumors Expressing Her-2/neu,[18]; without cytokines,7
same,Killing of Tumors Expressing Her-2/neu,[19]; [21],20
same,Killing of Tumors Expressing Her-2/neu,[19]; without cytokines,4
same,Killing of Tumors Expressing Her-2/neu,[20]; [21],50
same,Killing of Tumors Expressing Her-2/neu,[20]; without cytokines,6
